## Yeast mating assay 2: variants of the scFv Ab-91

The measurements come from Engelhart et al. 2022 (doi:10.1038/s41597-022-01779-4) through the FLAb antibody collection.

All variants were tested on one target, the spike HR2 peptide PDVDLGDISGINAS (SARS-CoV-2).

Parent: Ab-91, a human scFv built as VL, a 15-residue (Gly4Ser)3 linker, VH. Only the CDRs of the heavy chain vary.
VL: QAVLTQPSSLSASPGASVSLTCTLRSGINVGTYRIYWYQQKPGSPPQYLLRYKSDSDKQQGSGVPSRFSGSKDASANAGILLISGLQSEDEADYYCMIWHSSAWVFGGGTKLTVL
VH: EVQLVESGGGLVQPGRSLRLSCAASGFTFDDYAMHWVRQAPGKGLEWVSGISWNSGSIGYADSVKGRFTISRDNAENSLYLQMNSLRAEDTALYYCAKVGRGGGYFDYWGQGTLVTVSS

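The parent was found by panning a naive human phage display library on the peptide. Variants in AAYL51 differ from the parent at up to three CDR positions; double and triple changes were sampled at random. AlphaSeq pools MATa yeast showing the antibodies with MATalpha yeast showing the peptide. The frequency of each diploid, read from paired DNA barcodes, reflects how well the two displayed proteins bind. Scores were corrected for input abundance and mapped to Kd with protein pairs of known affinity run in the same pool. Each pool was mated in three replicate cultures.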

Changes read parent residue, position, new residue, counted from the first residue of the VH shown.
The read-out is the apparent dissociation constant on a log10 scale (nM): the lower, the stronger.
"ND" marks a missing value. The strain was present, yet no cells mated with the target were sequenced in that replicate, which points to weak or no binding.

| # | changes | log10 Kd (nM) by replicate | signal with controls |
|---|---|---|---|
| 1 | Y32M N54M V64H | ND / ND / 5.61 | 4/9 (4.88) |
| 2 | Y32F S52C | 3.79 / 4.74 / ND | 2/9 (4.42) |
| 3 | A61L G104R | 5.09 / ND / ND | 1/9 (2.35) |
| 4 | A33G I58L V64T | 2.11 / 2.10 / 2.01 | 8/9 (5.08) |
| 5 | G26R M34T I51N | ND / 4.53 / ND | 1/9 (3.70) |
| 6 | H35Y G50V F106E | ND / 5.75 / ND | 1/9 (4.30) |
| 7 | I58C V64Y F106K | 2.87 / 3.32 / 3.04 | 3/9 (4.31) |
| 8 | A33M M34D G103K | ND / ND / ND | 0/9 |
| 9 | Y32T S52H K65Q | ND / ND / ND | 0/9 |
| 10 | F29K D31K W53N | ND / ND / ND | 0/9 |
| 11 | N54D I58W A61Y | ND / ND / ND | 0/9 |
| 12 | Y105E | 4.48 / ND / ND | 4/9 (4.11) |
| 13 | F27Q F29P M34Y | ND / 4.98 / ND | 3/9 (4.32) |
| 14 | M34P V99L G103H | ND / 5.88 / ND | 1/9 (4.73) |
| 15 | I58C Y60D Y108D | 6.30 / 5.38 / 5.34 | 2/9 (5.49) |
| 16 | T28P W53N N54R | 4.81 / 4.54 / 4.73 | 2/9 (3.78) |
| 17 | Y32H A61H V99L | ND / ND / ND | 0/9 |
| 18 | A33H V99S D107A | ND / ND / ND | 0/9 |
| 19 | H35M F106C Y108W | ND / 5.22 / 4.93 | 4/9 (4.47) |
| 20 | D30E H35K G50D | ND / ND / ND | 2/9 (3.69) |
| 21 | G56R V64T G102C | 4.28 / 4.12 / 3.83 | 2/9 (4.96) |
| 22 | I51F W53L I58Y | 3.52 / 3.49 / ND | 0/9 |
| 23 | Y32L S52M Y105I | ND / 6.43 / 3.78 | 1/9 (4.07) |
| 24 | N54G D62T S63G | 4.70 / 4.71 / 4.24 | 7/9 (4.99) |
| 25 | T28C V64L G104M | ND / ND / ND | 0/9 |
| 26 | G50Y I58H G59K | 3.75 / ND / ND | 3/9 (4.46) |
| 27 | D62W V64T F106M | ND / ND / ND | 0/9 |
| 28 | I51L G100D G104V | ND / ND / ND | 0/9 |
| 29 | G50C S63F Y108A | ND / ND / ND | 0/9 |
| 30 | D30R I51K S52W | 5.36 / ND / ND | 3/9 (3.46) |
| 31 | Y32W G100C G103S | 2.27 / 3.40 / 3.25 | 2/9 (3.13) |
| 32 | D31Y K65A R101N | 1.94 / 1.15 / 2.83 | 0/9 |
| 33 | F27Q V99N R101E | ND / ND / ND | 0/9 |
| 34 | I51C R101Q G104Y | ND / ND / ND | 0/9 |
| 35 | I51H I58Q V99E | ND / 3.26 / ND | 3/9 (4.40) |
| 36 | T28E S52V G102N | 5.89 / 6.03 / ND | 4/9 (4.30) |
| 37 | S52Y W53H N54H | ND / ND / ND | 0/9 |
| 38 | D30F R101T | 4.29 / 5.85 / ND | 4/9 (4.33) |
| 39 | F29S S63Y Y105L | 6.04 / ND / ND | 3/9 (4.10) |
| 40 | T28D I58G K65L | ND / 5.52 / ND | 4/9 (4.58) |

In this assay the parent's reference entry averaged 1.86; its copy inside this library read 0.88.
Nonspecific signal, from three strains lacking the peptide, appeared in 21% of pairings of library AAYL51, centred on 4.54 (5% of these signals below 3.26); values are not corrected for it. Also given: how often the same scFv was detected with the empty control strains, with their mean in brackets.